According to PubChem BioAssay AID720511 (Broad Institute, 2013):
The list shows a part of the results, in another mix than the full data. Some structures show a salt or complex split into parts, the way the source records it. Active and inactive are the calls of the source.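 The calls were made as follows: active = mean added fluorescence quench of at least 8% versus neutral control, with both replicates also reaching 8%; inconclusive = only one of the mean or replicate conditions met; inactive = mean below 8% and not both replicates reaching 8%.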

Test: F508del CFTR correction, initial screen, CFBE line, single point (AID 720511);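 also: cells transiently co-express mutant CFTR-F508del with the halide-sensitive YFP; corrector assay measuring rescue of mutant channel to the surface after 24 h compound exposure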
Conditions: CFBE cells, YFP halide quenching, at 7.58 µM, stronger effect = higher value, % fluorescence drop versus neutral controls, stimulated with forskolin plus potentiator P3

Structure (SMILES)	activity (quench increase)
Cc1cc(C)cc(OP(C)(N)=O)c1 (centres undefined)	inactive: -1.86%
COc1ccccc1OP(C)(=O)Nc1cc(Cl)ccc1C (centres undefined)	inactive: 0.917%
O=[N+]([O-])c1cc([N+](=O)[O-])c(Nc2cccnc2)c([N+](=O)[O-])c1	inactive: -3.6%
O=[N+]([O-])c1ccc2c(c1)C=Nc1ccccc1O2	inactive: 1.5%
CC(C)(C)c1ccc(OP(C)(=O)Nc2ccc(SC(F)(F)F)cc2)cc1 (centres undefined)	inactive: 3.66%
Cc1cccc(C)c1OP(C)(N)=O (centres undefined)	inactive: 0.02%
COc1ccccc1-c1ccccn1.O=[N+]([O-])c1cc([N+](=O)[O-])c(O)c([N+](=O)[O-])c1	inactive: 3.4%
CCN(CC)CCCOC(=O)C(O)(c1ccccc1)c1ccccc1	inactive: 0.539%
O=[N+]([O-])c1cc([N+](=O)[O-])c(O)c([N+](=O)[O-])c1.c1ccc(Oc2ccncc2)cc1	inactive: -0.957%
CCOC(=O)c1ccc(NP(C)(=O)Oc2ccc(OC)cc2)cc1 (centres undefined)	inactive: 0.302%
CP(=O)(Nc1ccccn1)Oc1ccc(Cl)cc1 (centres undefined)	inactive: 0.656%
CP(=O)(Nc1ccc(SC(F)(F)F)cc1)Oc1ccc(Cl)cc1 (centres undefined)	inactive: -0.47%
CP(=O)(Oc1ccccc1)OC(c1ccccc1)C(F)(F)F (centres undefined)	inactive: 0.152%
CCc1ccc(OP(C)(=O)N2CCN(c3ccc([N+](=O)[O-])cc3)CC2)cc1 (centres undefined)	inactive: 1.64%
CP(=O)(NC(=O)Nc1ccccc1)Oc1ccccc1 (centres undefined)	inactive: -1.55%
CP(=O)(Nc1ccccc1Br)Oc1ccccc1 (centres undefined)	inactive: -3.07%
COc1ccccc1OP(C)(=O)Nc1ccccc1 (centres undefined)	inactive: -2.27%
COc1ccc(-c2ccccn2)cc1.O=[N+]([O-])c1cc([N+](=O)[O-])c(O)c([N+](=O)[O-])c1	inactive: 3.3%
CCCOc1ccc(NP(C)(=O)Oc2ccc(Cl)cc2)cc1 (centres undefined)	inactive: -0.153%
O=[N+]([O-])c1cc([N+](=O)[O-])c(Nc2nnnn2CCO)c([N+](=O)[O-])c1	inactive: 0.816%

Structure (SMILES)	activity (quench increase)
CCOC(=O)C(CC)C1=NC(C)(C)Cc2ccccc21.O=[N+]([O-])c1cc([N+](=O)[O-])c(O)c([N+](=O)[O-])c1 (centres undefined)	inactive: -1.55%
O=[N+]([O-])c1cc([N+](=O)[O-])c(-c2cnn(-c3ccccc3)c2)c([N+](=O)[O-])c1	inactive: 1.51%
O=[N+]([O-])c1cc([N+](=O)[O-])c(-n2nnc3ccccc32)c([N+](=O)[O-])c1	inactive: 0.569%
CN(Cc1cccnc1)C(=O)COc1ccc(Cl)c(Cl)c1.O=[N+]([O-])c1cc([N+](=O)[O-])c(O)c([N+](=O)[O-])c1	inactive: 2.74%
CP(=O)(Nc1cccc(Br)c1)Oc1ccccc1 (centres undefined)	inactive: 0.132%
COc1ccccc1OP(C)(=O)Nc1cccc(Br)c1 (centres undefined)	inactive: -0.371%
CCOC(=O)c1ccc(NP(C)(=O)Oc2cc(C)cc(C)c2)cc1 (centres undefined)	inactive: -2.74%
Cc1cc(C)cc(OP(C)(=O)Nc2ccc(C)cc2C)c1 (centres undefined)	inactive: -0.438%
O=C(O)c1cccc(Nc2c([N+](=O)[O-])cc([N+](=O)[O-])cc2[N+](=O)[O-])c1	inactive: -0.427%
Cc1c([N+](=O)[O-])cc([N+](=O)[O-])c(Br)c1[N+](=O)[O-]	inactive: -3.06%
O=[N+]([O-])c1cc([N+](=O)[O-])c(OC2CCCCC2O)c([N+](=O)[O-])c1 (centres undefined)	inactive: 4.04%
CCCCCOc1ccc(NP(C)(=O)Oc2ccc(Cl)cc2Cl)cc1 (centres undefined)	inactive: -1.94%
CCN(CC)CCCNc1ccccc1[N+](=O)[O-].O=[N+]([O-])c1cc([N+](=O)[O-])c(O)c([N+](=O)[O-])c1	inactive: -1.39%
COc1ccc(OP(C)(=O)Nc2ccc(SC(F)(F)F)cc2)cc1 (centres undefined)	inactive: -0.729%
O=C(OC1CN2CCC1CC2)c1ccc([N+](=O)[O-])cc1 (centres undefined)	inactive: 1.12%
O=C(OCCN1CCN(CCOCc2ccccc2)CC1)C(O)(c1ccccc1)c1ccccc1	inactive: -0.36%
COc1ccc2c(c1O)-c1c(O)c(OC)cc3c1[C@H](C2)[N+](C)(C)CC3.O=[N+]([O-])c1cc([N+](=O)[O-])c([O-])c([N+](=O)[O-])c1[O-]	inactive: 0.742%
O=[N+]([O-])c1cc([N+](=O)[O-])c(Nc2ccc(Cl)cc2)c([N+](=O)[O-])c1	inactive: -7.66%
CP(=O)(Nc1ccccc1F)Oc1ccccc1 (centres undefined)	inactive: -0.0165%
O=[N+]([O-])c1cc([N+](=O)[O-])c(C(F)(F)F)c([N+](=O)[O-])c1O	inactive: -0.633%

Structure (SMILES)	activity (quench increase)
CP(=O)(Nc1ccc(SC(F)(F)F)cc1)Oc1ccc(F)cc1 (centres undefined)	inactive: -1.89%
CCOP(=O)(CC)OCC	inactive: 0.109%
O=[N+]([O-])c1ccc(OP2(=O)COCCO2)cc1 (centres undefined)	inactive: 0.009%
Cc1cc(-c2cccc3ccccc23)c(C)cn1.O=[N+]([O-])c1cc([N+](=O)[O-])c(O)c([N+](=O)[O-])c1	inactive: -0.251%
Cc1c(C(c2ccc3c(c2)OCO3)c2c(C)n(C)n(-c3ccccc3)c2=O)c(=O)n(-c2ccccc2)n1C.O=[N+]([O-])c1cc([N+](=O)[O-])c(O)c([N+](=O)[O-])c1	inactive: -1.43%
COc1ccc(NP(C)(=O)Oc2ccccc2OC)cc1 (centres undefined)	inactive: -0.687%
Nc1ccc2c(ccc3cccnc32)n1.O=[N+]([O-])c1cc([N+](=O)[O-])c(O)c([N+](=O)[O-])c1	inactive: 3%
CCOC(=O)c1ccc(NP(C)(=O)Oc2ccc(Cl)cc2)cc1 (centres undefined)	inactive: -0.843%
COc1ccccc1OP(C)(=O)Nc1ccccc1Br (centres undefined)	inactive: -0.55%
CN(C)C(=O)c1c([N+](=O)[O-])cc([N+](=O)[O-])cc1[N+](=O)[O-]	inactive: -4.93%
O=C(OCCCN1CCCC1)C(O)(c1ccccc1)C1CCCCC1 (centres undefined)	inactive: -0.282%
CCc1ccc(OP(C)(=O)Nc2cccnc2)cc1 (centres undefined)	inactive: -2.75%
O=[N+]([O-])c1cc([N+](=O)[O-])c(Nc2ccccn2)c([N+](=O)[O-])c1	inactive: -3.15%
COc1ccccc1OP(C)(=O)Nc1ccc(Br)cc1 (centres undefined)	inactive: -0.853%
CP(=O)(OCCOc1ccccc1)OCCOc1ccccc1	inactive: 0.443%
CP(=O)(Nc1ccc(Cl)cc1Cl)Oc1ccccc1 (centres undefined)	inactive: -3.71%
CCCCCCCCCCCCCCCC1C[N+](C)(C)CCOP(C)(=O)O1 (centres undefined)	inactive: 3.58%
O=C1C(O)=C([N+](=O)[O-])C(=O)C(O)=C1[N+](=O)[O-]	inactive: -1.66%
Cc1cc(C)cc(OP(C)(=O)Nc2cccc(C(F)(F)F)c2)c1 (centres undefined)	inactive: -1.31%
